CycPeptMPDB entries from one study

Data: CycPeptMPDB; original report Kelly et al. 2021, doi:10.1021/jacs.0c06115.

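The data file gives no further conditions (lipid, pH, time, direction or concentration), and values from different papers need not be comparable. The list need not hold all peptides of the study. Entries at the database's floor value (log10 P of -10) are not listed.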

PAMPA is the parallel artificial membrane permeability assay, which has no cells and reads passive diffusion. Values are log10 P with P in cm/s, so -5 is more permeable than -7.

CC(=O)N1CCC[C@@H]1C(=O)N(C)[C@H](CC(C)C)C(=O)N[C@@H]1C(=O)N[C@@H](CC(C)C)C(=O)N(C)[C@H](CC(C)C)C(=O)N(C)[C@@H](CC(C)C)C(=O)N[C@@H](C)C(=O)N[C@@H](CC(C)C)C(=O)N2CCC[C@H]2C(=O)O[C@@H]1C is reported with PAMPA -6.34 (log10 cm/s).
CC(=O)N1CCC[C@H]1C(=O)N[C@@H]1C(=O)N[C@H](CC(C)C)C(=O)N[C@H](CC(C)C)C(=O)N(C)[C@H](CC(C)C)C(=O)N[C@@H](CC(C)C)C(=O)N(C)[C@H](C)C(=O)N[C@@H](CC(C)C)C(=O)N2CCC[C@@H]2C(=O)O[C@@H]1C is reported with PAMPA -5.71 (log10 cm/s).
CC(=O)N1CCC[C@H]1C(=O)N(C)[C@@H](CC(C)C)C(=O)N[C@@H]1C(=O)N(C)[C@@H](CC(C)C)C(=O)N[C@H](CC(C)C)C(=O)N(C)[C@H](CC(C)C)C(=O)N[C@@H](C)C(=O)N[C@@H](CC(C)C)C(=O)N2CCC[C@H]2C(=O)O[C@@H]1C is reported with PAMPA -6.23 (log10 cm/s).
CC(=O)N1CCC[C@H]1C(=O)N(C)[C@@H](CC(C)C)C(=O)N[C@@H]1C(=O)N(C)[C@H](CC(C)C)C(=O)N[C@@H](CC(C)C)C(=O)N(C)[C@H](CC(C)C)C(=O)N(C)[C@H](C)C(=O)N[C@@H](CC(C)C)C(=O)N2CCC[C@H]2C(=O)O[C@@H]1C is reported with PAMPA -5.28 (log10 cm/s).
CC(=O)N1CCC[C@H]1C(=O)N(C)[C@@H](CC(C)C)C(=O)N[C@@H]1C(=O)N(C)[C@@H](CC(C)C)C(=O)N[C@H](CC(C)C)C(=O)N[C@@H](CC(C)C)C(=O)N(C)[C@@H](C)C(=O)N[C@H](CC(C)C)C(=O)N2CCC[C@@H]2C(=O)O[C@@H]1C is reported with PAMPA -6.01 (log10 cm/s).
CC(=O)N1CCC[C@H]1C(=O)N(C)[C@H](CC(C)C)C(=O)N[C@@H]1C(=O)N(C)[C@@H](CC(C)C)C(=O)N(C)[C@H](CC(C)C)C(=O)N(C)[C@H](CC(C)C)C(=O)N(C)[C@H](C)C(=O)N[C@H](CC(C)C)C(=O)N2CCC[C@H]2C(=O)O[C@@H]1C is reported with PAMPA -5.28 (log10 cm/s).
CC(=O)N1CCC[C@@H]1C(=O)N(C)[C@@H](CC(C)C)C(=O)N[C@@H]1C(=O)N(C)[C@H](CC(C)C)C(=O)N[C@@H](CC(C)C)C(=O)N(C)[C@H](CC(C)C)C(=O)N(C)[C@@H](C)C(=O)N[C@@H](CC(C)C)C(=O)N2CCC[C@H]2C(=O)O[C@@H]1C is reported with PAMPA -5.41 (log10 cm/s).
CC(=O)N1CCC[C@H]1C(=O)N(C)[C@@H](CC(C)C)C(=O)N[C@@H]1C(=O)N(C)[C@@H](CC(C)C)C(=O)N(C)[C@@H](CC(C)C)C(=O)N[C@@H](CC(C)C)C(=O)N(C)[C@@H](C)C(=O)N[C@@H](CC(C)C)C(=O)N2CCC[C@H]2C(=O)O[C@@H]1C is reported with PAMPA -6.15 (log10 cm/s).
CC(=O)N1CCC[C@@H]1C(=O)N(C)[C@@H](CC(C)C)C(=O)N[C@@H]1C(=O)N[C@H](CC(C)C)C(=O)N[C@H](CC(C)C)C(=O)N[C@H](CC(C)C)C(=O)N[C@H](C)C(=O)N[C@@H](CC(C)C)C(=O)N2CCC[C@@H]2C(=O)O[C@@H]1C is reported with PAMPA -6.71 (log10 cm/s).
CC(=O)N1CCC[C@H]1C(=O)N(C)[C@H](CC(C)C)C(=O)N[C@@H]1C(=O)N[C@H](CC(C)C)C(=O)N[C@H](CC(C)C)C(=O)N(C)[C@@H](CC(C)C)C(=O)N(C)[C@@H](C)C(=O)N[C@H](CC(C)C)C(=O)N2CCC[C@@H]2C(=O)O[C@@H]1C is reported with PAMPA -5.38 (log10 cm/s).
CC(=O)N1CCC[C@H]1C(=O)N(C)[C@@H](CC(C)C)C(=O)N[C@@H]1C(=O)N(C)[C@H](CC(C)C)C(=O)N[C@H](CC(C)C)C(=O)N(C)[C@@H](CC(C)C)C(=O)N(C)[C@@H](C)C(=O)N[C@H](CC(C)C)C(=O)N2CCC[C@@H]2C(=O)O[C@@H]1C is reported with PAMPA -5.78 (log10 cm/s).
CC(=O)N1CCC[C@H]1C(=O)N(C)[C@H](CC(C)C)C(=O)N[C@@H]1C(=O)N[C@@H](CC(C)C)C(=O)N[C@H](CC(C)C)C(=O)N(C)[C@@H](CC(C)C)C(=O)N[C@@H](C)C(=O)N[C@H](CC(C)C)C(=O)N2CCC[C@H]2C(=O)O[C@@H]1C is reported with PAMPA -5.79 (log10 cm/s).
CC(=O)N1CCC[C@H]1C(=O)N(C)[C@@H](CC(C)C)C(=O)N[C@@H]1C(=O)N[C@H](CC(C)C)C(=O)N(C)[C@@H](CC(C)C)C(=O)N(C)[C@H](CC(C)C)C(=O)N[C@@H](C)C(=O)N[C@@H](CC(C)C)C(=O)N2CCC[C@@H]2C(=O)O[C@@H]1C is reported with PAMPA -5.22 (log10 cm/s).
CC(=O)N1CCC[C@@H]1C(=O)N(C)[C@@H](CC(C)C)C(=O)N[C@@H]1C(=O)N(C)[C@H](CC(C)C)C(=O)N(C)[C@H](CC(C)C)C(=O)N[C@@H](CC(C)C)C(=O)N(C)[C@H](C)C(=O)N[C@H](CC(C)C)C(=O)N2CCC[C@H]2C(=O)O[C@@H]1C is reported with PAMPA -5.33 (log10 cm/s).
CC(=O)N1CCC[C@H]1C(=O)N(C)[C@@H](CC(C)C)C(=O)N[C@@H]1C(=O)N[C@@H](CC(C)C)C(=O)N[C@@H](CC(C)C)C(=O)N(C)[C@@H](CC(C)C)C(=O)N(C)[C@@H](C)C(=O)N[C@H](CC(C)C)C(=O)N2CCC[C@H]2C(=O)O[C@@H]1C is reported with PAMPA -6.58 (log10 cm/s).
CC(=O)N1CCC[C@H]1C(=O)N(C)[C@@H](CC(C)C)C(=O)N[C@@H]1C(=O)N(C)[C@H](CC(C)C)C(=O)N(C)[C@@H](CC(C)C)C(=O)N(C)[C@@H](CC(C)C)C(=O)N(C)[C@H](C)C(=O)N[C@@H](CC(C)C)C(=O)N2CCC[C@H]2C(=O)O[C@@H]1C is reported with PAMPA -5.32 (log10 cm/s).
CC(=O)N1CCC[C@H]1C(=O)N(C)[C@@H](CC(C)C)C(=O)N[C@@H]1C(=O)N(C)[C@H](CC(C)C)C(=O)N(C)[C@H](CC(C)C)C(=O)N[C@@H](CC(C)C)C(=O)N(C)[C@@H](C)C(=O)N[C@H](CC(C)C)C(=O)N2CCC[C@@H]2C(=O)O[C@@H]1C is reported with PAMPA -5.24 (log10 cm/s).
CC(=O)N1CCC[C@@H]1C(=O)N(C)[C@@H](CC(C)C)C(=O)N[C@@H]1C(=O)N[C@H](CC(C)C)C(=O)N[C@H](CC(C)C)C(=O)N[C@H](CC(C)C)C(=O)N(C)[C@H](C)C(=O)N[C@H](CC(C)C)C(=O)N2CCC[C@@H]2C(=O)O[C@@H]1C is reported with PAMPA -6.05 (log10 cm/s).
CC(=O)N1CCC[C@@H]1C(=O)N(C)[C@@H](CC(C)C)C(=O)N[C@@H]1C(=O)N(C)[C@@H](CC(C)C)C(=O)N(C)[C@@H](CC(C)C)C(=O)N[C@@H](CC(C)C)C(=O)N(C)[C@@H](C)C(=O)N[C@H](CC(C)C)C(=O)N2CCC[C@@H]2C(=O)O[C@@H]1C is reported with PAMPA -5.21 (log10 cm/s).
CC(=O)N1CCC[C@H]1C(=O)N(C)[C@@H](CC(C)C)C(=O)N[C@@H]1C(=O)N[C@H](CC(C)C)C(=O)N(C)[C@@H](CC(C)C)C(=O)N(C)[C@@H](CC(C)C)C(=O)N(C)[C@H](C)C(=O)N[C@H](CC(C)C)C(=O)N2CCC[C@H]2C(=O)O[C@@H]1C is reported with PAMPA -5.48 (log10 cm/s).
CC(=O)N1CCC[C@H]1C(=O)N(C)[C@@H](CC(C)C)C(=O)N[C@@H]1C(=O)N(C)[C@H](CC(C)C)C(=O)N[C@H](CC(C)C)C(=O)N(C)[C@@H](CC(C)C)C(=O)N(C)[C@H](C)C(=O)N[C@H](CC(C)C)C(=O)N2CCC[C@@H]2C(=O)O[C@@H]1C is reported with PAMPA -5.82 (log10 cm/s).
CC(=O)N1CCC[C@@H]1C(=O)N(C)[C@H](CC(C)C)C(=O)N[C@@H]1C(=O)N(C)[C@H](CC(C)C)C(=O)N(C)[C@H](CC(C)C)C(=O)N[C@@H](CC(C)C)C(=O)N(C)[C@@H](C)C(=O)N[C@H](CC(C)C)C(=O)N2CCC[C@@H]2C(=O)O[C@@H]1C is reported with PAMPA -4.98 (log10 cm/s).
CC(=O)N1CCC[C@@H]1C(=O)N(C)[C@@H](CC(C)C)C(=O)N[C@@H]1C(=O)N(C)[C@H](CC(C)C)C(=O)N[C@H](CC(C)C)C(=O)N(C)[C@H](CC(C)C)C(=O)N[C@H](C)C(=O)N[C@H](CC(C)C)C(=O)N2CCC[C@@H]2C(=O)O[C@@H]1C is reported with PAMPA -5.79 (log10 cm/s).

3 of these entries, quoted again:

| compound | PAMPA (log10 cm/s) |
|---|---|
| CC(=O)N1CCC[C@H]1C(=O)N(C)[C@@H](CC(C)C)C(=O)N[C@@H]1C(=O)N[C@H](CC(C)C)C(=O)N(C)[C@@H](CC(C)C)C(=O)N(C)[C@H](CC(C)C)C(=O)N[C@@H](C)C(=O)N[C@@H](CC(C)C)C(=O)N2CCC[C@@H]2C(=O)O[C@@H]1C | -5.22 |
| CC(=O)N1CCC[C@@H]1C(=O)N(C)[C@@H](CC(C)C)C(=O)N[C@@H]1C(=O)N(C)[C@H](CC(C)C)C(=O)N[C@@H](CC(C)C)C(=O)N(C)[C@H](CC(C)C)C(=O)N(C)[C@@H](C)C(=O)N[C@@H](CC(C)C)C(=O)N2CCC[C@H]2C(=O)O[C@@H]1C | -5.41 |
| CC(=O)N1CCC[C@H]1C(=O)N[C@@H]1C(=O)N[C@H](CC(C)C)C(=O)N[C@H](CC(C)C)C(=O)N(C)[C@H](CC(C)C)C(=O)N[C@@H](CC(C)C)C(=O)N(C)[C@H](C)C(=O)N[C@@H](CC(C)C)C(=O)N2CCC[C@@H]2C(=O)O[C@@H]1C | -5.71 |